Among the data in patent publication US12674026B2, “Process for preparing polyol-based esters of acyl-capped hydroxy carboxylic acids” (KetoLipix Therapeutics GmbH, priority 2019, dated 2026) are cleavage by pancreatin values, retold here.

The test system of this data set is pancreatin. Kind of data set: Cleavage experiments with pancreatin (Panzytrat 40,000) in water, followed by acid number over time. The following applies: each ester in its pure form, 50° C. As to the method:
Both media are from the company Biorelevant®, Ltd. in Great Britain. In addition, in some experiments porcine pancreas is added (Panzytrat® 40,000, Fa. Allergan).
The pancreatin is used in the form of the commercially available product Panzytrat® 40,000 from the Allergan company. The whole mixture is stirred on a hotplate at 50° C.; the course of the reaction is determined and followed by continuous recording of the acid number over time.

As to “3-acetylacetobutyric acid tetra-diglycerol ester [3-acetylaceto-BHB tetra-diglycerol ester]”, the cleavage by pancreatin entry is on record as “cleaved by pancreatin”.
